Binding of CDR-mutated scFvs to a peptide of the spike HR2 region

All variants were tested on one target, the spike HR2 peptide PDVDLGDISGINAS (SARS-CoV-2).

Ab-14 is the parent antibody, in scFv form: VH, then the linker GGGGSGGGGSGGGGS, then VL. The heavy chain is unchanged in all variants.
VH: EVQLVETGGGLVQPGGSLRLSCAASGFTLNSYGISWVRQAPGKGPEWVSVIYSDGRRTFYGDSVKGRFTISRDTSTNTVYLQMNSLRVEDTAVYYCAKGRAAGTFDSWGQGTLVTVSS
VL: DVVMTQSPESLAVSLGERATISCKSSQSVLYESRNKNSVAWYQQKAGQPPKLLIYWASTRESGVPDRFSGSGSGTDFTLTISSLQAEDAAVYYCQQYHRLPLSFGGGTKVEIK

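Phage display of a naive human antibody library on the peptide gave the parent. Library AAYL50 holds single substitutions and randomly drawn double and triple substitutions in the CDRs. The assay is AlphaSeq: two haploid yeast populations carry antibody and antigen on their surface. Pairs that bind mate more often; barcode pairs of the diploids are counted by sequencing. Scores were corrected for input abundance and mapped to Kd with protein pairs of known affinity run in the same pool. The assay was run in three technical replicates.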

Each variant is given by its three light chain CDRs, as the data file delimits them; those of the parent are KSSQSVLYESRNKNSVA, WASTRES, QQYHRLPLS. Numbers give log10(Kd / nM), so 0 is 1 nM and 3 is 1 µM. Smaller is tighter. A mean of the replicates is given; it leaves out those without a signal. "nd" means that the variant was in the library but no mating with the target was seen in that replicate; the authors take this as a sign of poor binding, and no number exists. Empty control strains, which show no peptide, gave a signal in 18% of pairings with library AAYL50; the median was 4.19 and 95% of these signals were weaker than 2.99. No background was subtracted. The control count says in how many pairings with the empty strains this scFv gave a signal, with their mean in brackets.

| CDR-L1 | CDR-L2 | CDR-L3 | log10 Kd (nM) by replicate | log10 Kd (nM), mean | signal with controls |
|---|---|---|---|---|---|
| KSSQSVLYESTNKNSVA | WASTREG | QQYHRLPLH | 0.70 0.96 0.77 | 0.81 | 2/9 (3.58) |
| KSSQSVLYESMNKNCVA | WASTRES | QQYHRLPLC | 1.47 1.65 2.52 | 1.88 | 2/9 (3.50) |
| KSSLSVFYESRNKNSVA | WASYRES | QQYHRLPLS | 1.47 1.64 1.56 | 1.56 | 3/9 (3.78) |
| KSSQPLMYESRNKNSVA | WASTRES | QQYHRLPLS | 0.37 0.64 0.60 | 0.54 | 2/9 (4.96) |
| KSSQSVLYESPNPNSVA | WASTRES | NQYHRLPLS | 1.01 1.36 1.25 | 1.21 | 1/9 (4.97) |
| KSSQSILYESDNKNSVA | FASTRES | QQYHRLPLS | 0.73 0.93 0.85 | 0.84 | 4/9 (4.57) |
| KSSQSVLYEHRNKNSDA | WASTRES | QQPHRLPLS | nd nd nd | nd | 0/9 |
| KSSQSVLYESRNCNSWA | WASTWES | QQYHRLPLS | nd 3.55 nd | 3.55 | 0/9 |
| KSSQSVLYESRNKNSKA | WAYTKES | QQYHRLPLS | nd 3.95 4.56 | 4.26 | 2/9 (4.34) |
| KSSLYVLYESRNKKSVA | WASTRES | QQYHRLPLS | 4.99 4.84 nd | 4.92 | 1/9 (5.13) |
| KSSQSVIYESWNKNSVA | WASTRES | LQYHRLPLS | nd nd nd | nd | 1/9 (3.46) |
| KSSQNVLYELRNKNSVA | WASTRES | QQYHRLPLS | 1.26 1.34 1.33 | 1.31 | 2/9 (4.36) |
| KFSQSVLYESRNSNSVA | WASTRES | QQYHRLPLS | -0.32 0.02 -0.15 | -0.15 | 2/9 (3.62) |
| KSSSSVLYESRNKNSVS | WASTRES | QQYHRLPLS | 2.67 2.65 3.39 | 2.90 | 0/9 |
| KSSQSVLYESRNMNSVA | WASTRES | QQYHRLFGS | 1.48 1.76 1.48 | 1.57 | 5/9 (4.08) |
| KSLQSVLYEPRNKNSYA | WASTRES | QQYHRLPLS | nd nd 4.48 | 4.48 | 0/9 |
| KSSGSVLYESRNKNSVA | WASTRES | QTYHRLPLL | 1.38 1.52 1.74 | 1.55 | 1/9 (4.01) |
| KSLQSVQYESRNKNSVA | WASTRES | QQYHRLPLS | 0.72 0.87 0.93 | 0.84 | 0/9 |
| KSHQSVLYESRNKNSVA | IASTRES | QQYHGLPLS | nd nd nd | nd | 0/9 |
| DSSQSVLYESRNKNCVA | KASTRES | QQYHRLPLS | 1.16 1.12 1.63 | 1.30 | 0/9 |
| KSSQMVLYGSRNKNSVA | WASNRES | QQYHRLPLS | 2.51 1.83 1.14 | 1.82 | 0/9 |
| KSSESVLYTSMNKNSVA | WASTRES | QQYHRLPLS | 0.48 0.71 0.63 | 0.61 | 1/9 (3.78) |
| KSSQSVLYESRNLNSVA | WASTRTW | QQYHRLPLS | 2.83 2.45 2.19 | 2.49 | 1/9 (4.07) |
| KSSQSVLYPSRNKNSTA | WASTREI | QQYHRLPLS | 5.46 3.65 3.74 | 4.28 | 6/9 (4.19) |
| KSSQSGLYESRNKNSVA | KASTRES | QQYHDLPLS | -0.24 0.18 -0.10 | -0.05 | 2/9 (4.27) |
| KSLQSVLYESRNKNSVA | WASTRES | WQYHRLSLS | nd nd nd | nd | 1/9 (3.65) |
| KSSQSVLYESRNKNSVA | SASTRED | QQYHRLPLS | -0.16 0.17 -0.03 | -0.01 | 2/9 (3.95) |
| KSCQSVLYEDRNKNSIA | WASTRES | QQYHRLPLS | 0.27 0.56 0.67 | 0.50 | 1/9 (2.88) |
| KSSQSVLYESRNKDSVA | WASIRES | QQYHRLPLL | 1.43 1.50 1.78 | 1.57 | 2/9 (4.73) |
| WSSQSVLYESRNKNSVA | WASTSES | QQYHRLPLS | nd nd nd | nd | 1/9 (3.03) |
| KSSQSVRYESRNKNSVA | WATTREN | QQYHRLPLS | 2.65 nd nd | 2.65 | 0/9 |
| KSSQSVLYESRNKNSVA | FASTRES | QQKHRGPLS | nd nd 3.88 | 3.88 | 4/9 (4.77) |
| KSSQSVLYESRVKNSPA | WASTRES | QQTHRLPLS | nd nd nd | nd | 0/9 |
| KSSQGVLYESRNKNSLA | MASTRES | QQYHRLPLS | 0.68 1.00 1.06 | 0.91 | 1/9 (3.82) |
| KSQQSVLYESRNKNSVA | WASTRES | QQYHRLWLS | nd 3.81 nd | 3.81 | 0/9 |
| KSSQSVLYESRRKYSVA | WASTRES | QQYMRLPLS | nd 2.27 nd | 2.27 | 0/9 |
| KSSQSVLYEIRNKNSVA | WAFTRES | QQYHRLCLS | nd nd 4.05 | 4.05 | 0/9 |
| KSSQSVLYESRNKDSVA | WASTRVS | QQYHHLPLS | 0.95 1.02 1.03 | 1.00 | 0/9 |
| KSSQSVLYESRNHNSVA | WASTRCS | QQYHRLPLL | 1.25 1.36 1.30 | 1.30 | 0/9 |
| KSSDSVTYESRNKNSVA | WASTRES | QQYHRLPLS | 1.07 0.91 0.86 | 0.95 | 0/9 |
| KSSQSVLYESRNKNKVA | WARTRES | QQYHRLPLS | nd nd nd | nd | 1/9 (2.29) |

Excerpt, the final 6 entries:

| CDR-L1 | CDR-L2 | CDR-L3 | log10 Kd (nM) by replicate | log10 Kd (nM), mean | signal with controls |
|---|---|---|---|---|---|
| KSSQSVLYESRRKYSVA | WASTRES | QQYMRLPLS | nd 2.27 nd | 2.27 | 0/9 |
| KSSQSVLYEIRNKNSVA | WAFTRES | QQYHRLCLS | nd nd 4.05 | 4.05 | 0/9 |
| KSSQSVLYESRNKDSVA | WASTRVS | QQYHHLPLS | 0.95 1.02 1.03 | 1.00 | 0/9 |
| KSSQSVLYESRNHNSVA | WASTRCS | QQYHRLPLL | 1.25 1.36 1.30 | 1.30 | 0/9 |
| KSSDSVTYESRNKNSVA | WASTRES | QQYHRLPLS | 1.07 0.91 0.86 | 0.95 | 0/9 |
| KSSQSVLYESRNKNKVA | WARTRES | QQYHRLPLS | nd nd nd | nd | 1/9 (2.29) |

From the AlphaSeq antibody data of Engelhart et al. 2022 (doi:10.1038/s41597-022-01779-4), copy in the FLAb collection.